Each structure is given as a SMILES string. Several values for one entry are separate records, joined by “and”; a condition that tells them apart may be missing. Equal entries are not always repeated. This is a selection; strong and weak results do not stand in their true shares. Activity calls are given as the source filed them. Rule as the data show it: active = growth inhibition above about 70%; inactive = the rest.

A short description of assay [1]: NCI Yeast Anticancer Drug Screen. Data for the rad50 strain (AID 155).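 Also: 0% = growth of vehicle-only cultures of the same strain.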 The conditions noted are these: S. cerevisiae rad50 strain growth inhibition; at 50.0 µM; stronger effect = higher value.
Assay [2] in a line: NCI Yeast Anticancer Drug Screen. Data for the mec2-1 strain (AID 157). The settings on record: S. cerevisiae mec2-1 strain, at 50.0 µM, stronger effect = higher value.
The nature of assay [3]: NCI Yeast Anticancer Drug Screen. Data for the sgs1 mgt1 strain (AID 161).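 Also: 0% = growth of cultures given vehicle only.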 The conditions noted are these: S. cerevisiae sgs1 mgt1 strain, at 50.0 µM, stronger effect = higher value.
Assay [4] can be described thus: NCI Yeast Anticancer Drug Screen. Data for the cln2 rad14 strain (AID 165).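 Also: 0% = growth equal to vehicle treated cultures.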 The settings on record: S. cerevisiae cln2 rad14 strain, at 50.0 µM, stronger effect = higher value.
A short description of assay [5]: NCI Yeast Anticancer Drug Screen. Data for the bub3 strain (AID 167). The settings on record: S. cerevisiae bub3 mutant strain, at 50.0 µM, stronger effect = higher value.
The nature of assay [6]: NCI Yeast Anticancer Drug Screen. Data for the mlh1 rad18 strain (AID 175). The conditions noted are these: S. cerevisiae mlh1 rad18 strain growth inhibition; at 50.0 µM; stronger effect = higher value.

In the case of `ClCCN1C[C@H]2[C@H]3CC[C@H](C3)[C@@]2(c2ccccc2)C1`, the growth inhibition in assay [1] is inactive: -4.9%; in assay [2], inactive: -7.75%; in assay [3], inactive: 12.1%; in assay [4], inactive: -31.1%; in assay [5], inactive: -16.9%; in assay [6], inactive: 13.2%.
As for `O=C(O)C(CSSCC(Nc1ccc([N+](=O)[O-])cc1[N+](=O)[O-])C(=O)O)Nc1ccc([N+](=O)[O-])cc1[N+](=O)[O-]` (centres undefined), the growth inhibition in assay [1] was inactive: 30.6%; in assay [2], inactive: 9.45%; in assay [3], inactive: 43.5%; in assay [4] it was inactive: 2.9%; in assay [5], inactive: 2.8%; in assay [6], inactive: 47.3%.
As to `NC(CO)C(=O)O` (centres undefined), the growth inhibition is inactive: -18.2% and inactive: -1.95% in assay [1]; inactive: -3.05% and inactive: -0.35% in assay [2]; inactive: -9.9% and inactive: 7.05% in assay [3]; inactive: -3% and inactive: 1.85% in assay [4]; inactive: 7.35% and inactive: 15.9% in assay [5]; inactive: -3.7% and inactive: 5.3% in assay [6].
On to `CC(=O)SCC(Cl)Cl`, for which the growth inhibition in assay [1] is inactive: -2.45%; in assay [2] it was inactive: -0.45%; in assay [3], inactive: 3.45%; in assay [4], inactive: -14.4%; in assay [5] it was inactive: 14.9%; in assay [6], inactive: -1.7%.
With `CCN(CC)[P+](Oc1ccccc1)(N(CC)CC)N(CC)CC`, the growth inhibition in assay [1] is inactive: 52%; in assay [2], inactive: 30.9%; in assay [3], inactive: 47.5%; in assay [4] it was inactive: 21.1%; in assay [5] it was inactive: 18.4%; in assay [6], inactive: 42.2%.
`CC(=N\N=C(/N)N[N+](=O)[O-])/C(C)=N/N=C(\N)N[N+](=O)[O-]`: the growth inhibition in assay [1] is inactive: 5.9%; in assay [2] it was inactive: 25.6%; in assay [3], inactive: 3.6%; in assay [4], inactive: -1.25%; in assay [5], inactive: 38.2%; in assay [6], inactive: 26.6%.
In the case of `CCCCSP1(SCCCC)=NP(Cl)(Cl)=NP(Cl)(Cl)=N1`, the growth inhibition in assay [1] was inactive: 4.3%; in assay [2], inactive: -55.6%; in assay [3], inactive: -6.85%; in assay [4], inactive: -28.3%; in assay [5] it was inactive: 3.85%; in assay [6] it was inactive: -9.1%.
As for `CC(C)(C)OP(OC(C)(C)C)OC(C)(C)C`, the growth inhibition in assay [1] is inactive: 2.6%; in assay [2], inactive: -15.8%; in assay [3] it was inactive: -5.75%; in assay [4], inactive: -14.9%; in assay [5], inactive: 9.6%; in assay [6], inactive: 1.9%.
As for `c1ccc(CNCCNCc2ccccc2)cc1`, the growth inhibition is inactive: 34.6% in assay [1]; inactive: -10% in assay [2]; inactive: 27.4% in assay [3]; inactive: 23.1% in assay [4]; inactive: 30.6% in assay [5]; inactive: 27.2% in assay [6].
As to `BrCCN(CCBr)c1ccc2ccccc2c1`, the growth inhibition in assay [1] is inactive: 40.9%; in assay [2] it was inactive: 11.4%; in assay [3] it was inactive: 44.1%; in assay [4], inactive: 42.8%; in assay [5] it was inactive: 6.15%; in assay [6] it was active: 78.3%.
`CN1CC[O][Ge]2([O]CC1)[O]C(=O)C(c1ccccc1)(c1ccccc1)[O]2`: the growth inhibition is inactive: -11.2% in assay [1]; inactive: 2.7% in assay [2]; inactive: 10% in assay [3]; inactive: 19.6% in assay [4]; inactive: -7.55% in assay [5]; inactive: -4.4% in assay [6].
Regarding `C[As](C)SC1OC(CO)C(O)C(O)C1O` (centres undefined), the growth inhibition is inactive: 8.2% in assay [1]; inactive: 13.7% in assay [2]; inactive: 3.8% in assay [3]; inactive: 18.6% in assay [4]; inactive: 14.7% in assay [5]; inactive: 31.6% in assay [6].
With `BrCCN(CCBr)c1cccc2ccccc12`, the growth inhibition in assay [1] was inactive: 15.7%; in assay [2], inactive: -22.7%; in assay [3], inactive: 5.3%; in assay [4] it was inactive: 17.4%; in assay [5], inactive: -23.1%; in assay [6] it was inactive: 23.4%.
Turning to `O=C(Cn1nnc2ccccc21)N(CCCl)CCCl`, the growth inhibition in assay [1] was inactive: -12.2%; in assay [2] it was inactive: -7.35%; in assay [3], inactive: -0.1%; in assay [4], inactive: 4.9%; in assay [5], inactive: 0.15%; in assay [6] it was inactive: 3.5%.
As for `CN(C)CC(c1ccccc1)C1(O)CCCC1` (centres undefined), the growth inhibition is inactive: 18.6% in assay [1]; inactive: 1.5% in assay [2]; inactive: 33.4% in assay [3]; inactive: 51.1% in assay [4]; inactive: -4.35% in assay [5]; inactive: 15% in assay [6].
Turning to `Cc1ccc(CNCCI)cc1C`, the growth inhibition was inactive: 8.55% in assay [1]; inactive: 2.5% in assay [2]; inactive: 36.5% in assay [3]; inactive: -6.35% in assay [4]; inactive: 10.1% in assay [5]; inactive: 7.5% in assay [6].
As for `CCOP(=O)(Nc1nccs1)c1ccc(N)cc1` (centres undefined), the growth inhibition in assay [1] is inactive: -0.8%; in assay [2], inactive: 8.75%; in assay [3] it was inactive: -16.2%; in assay [4], inactive: -18.9%; in assay [5] it was inactive: 23.4%; in assay [6], inactive: -9.3%.
Consider `CC(C)(C(=O)c1cc([N+](=O)[O-])cc([N+](=O)[O-])c1)c1cc([N+](=O)[O-])cc([N+](=O)[O-])c1`, for which the growth inhibition in assay [1] was inactive: -2%; in assay [2], inactive: 25.6%; in assay [3] it was inactive: 3.25%; in assay [4] it was inactive: 16.8%; in assay [5] it was inactive: 1.1%; in assay [6] it was inactive: 8.05%.
`O=[As]c1ccc(S(=O)(=O)NCCO)cc1` (centres undefined): the growth inhibition in assay [1] is inactive: 5.4%; in assay [2] it was inactive: -22.4%; in assay [3], inactive: -25.3%; in assay [4], inactive: -5.2%; in assay [5], inactive: -11.2%; in assay [6], inactive: -17.4%.

Source of the values: PubChem BioAssay (NCI).
